Numbering of substitutions follows the chain as printed. In names and notes the source's numbering stands.

First the molecules themselves.
B1: GFP2-cGAS (cyclic GMP-AMP synthase, eBRET2 biosensor component), Q8N884 S37D (protein)
chain: MQPWHGKAMQRASEAGATAPKASARNARGAPMDPTEDPAAPEAALPKAGKFGPARKSGSRQKKSAPDTQERPPVRATGARAKKAPQRAQDTQPSDATSAPGAEGLEPPAAREPALSRAGSCRQRGARCSTKPRPPPGPWDVPSPGLPVSAPILVRRDAAPGASKLRAVLEKLKLSRDDISTAAGMVKGVVDHLLLRLKCDSAFRGVGLLNTGSYYEHVKISAPNEFDVMFKLEVPRIQLEEYSNTRAYYFVKFKRNPKENPLSQFLEGEILSASKMLSKFRKIIKEEINDIKDTDVIMKRKRGGSPAVTLLISEKISVDITLALESKSSWPASTQEGLRIQNWLSAKVRKQLRLKPFYLVPKHAKEGNGFQEETWRLSFSHIEKEILNNHGKSKTCCENKEEKCCRKDCLKLMKYLLEQLKERFKDKKHLDKFSSYHVKTAFFHVCTQNPQDSQWDRKDLGLCFDNCVTYFLQCLRTEKLENYFIPEFNLFSSNLIDKRSKEFLTKQIEYERNNEFPVFDEF
B2: GFP2-cGAS (cyclic GMP-AMP synthase, eBRET2 biosensor component), Q8N884 S37A (protein)
chain: B1 chain with D37A
B3: GFP2-cGAS (cyclic GMP-AMP synthase, eBRET2 biosensor component), Q8N884 S305A (protein)
chain: B1 chain with D37S, S305A
B4: GFP2-cGAS (cyclic GMP-AMP synthase, eBRET2 biosensor component), Q8N884 S305D (protein)
chain: B1 chain with D37S, S305D
B5: GFP2-cGAS (cyclic GMP-AMP synthase, eBRET2 biosensor component), Q8N884 S221D (protein)
chain: B1 chain with D37S, S221D
B6: GFP2-cGAS (cyclic GMP-AMP synthase, eBRET2 biosensor component), Q8N884 S213D (protein)
chain: B1 chain with D37S, S213D
B7: GFP2-cGAS (cyclic GMP-AMP synthase, eBRET2 biosensor component), Q8N884 S317D (protein)
chain: B1 chain with D37S, S317D
B8: GFP2-cGAS (cyclic GMP-AMP synthase, eBRET2 biosensor component), Q8N884 T447E (protein)
chain: B1 chain with D37S, T447E

The first test concerns the target T1, Rluc8-H2A (histone H2A, eBRET2 biosensor component), P0C0S8. In words: eBRET2. Particulars: chain shown with the change; transfection into cGAS knockout HCT116 cells; parent: est. 1.0; read off a plot. On the technique in general: In BRET a luciferase serves as donor, and the signal depends on an acceptor being close.
For the molecule B1, the response (relative eBRET2 signal (510nm/395nm)) came out at 1.1. Take B2: the response (relative eBRET2 signal (510nm/395nm)) worked out at 0.28.

As to B3, the response (relative eBRET2 signal (510nm/395nm)) turned out to be 0.25. In the case of B4, the response (relative eBRET2 signal (510nm/395nm)) stood at 0.28.

In another test the target is T1, Rluc8-H2A (histone H2A, eBRET2 …). Put plainly: eBRET2. The note with it: chain shown with the change; transfection into cGAS knockout HCT116 cells; parent: est. 1.0; read off a plot. The source holds these as a separate data set.
Regarding B1, the response (relative eBRET2 signal (510nm/395nm)) was 1.1. Take B5: the response (relative eBRET2 signal (510nm/395nm)) was found to be 1. Take B2: the response (relative eBRET2 signal (510nm/395nm)) is 0.23. B6: the response (relative eBRET2 signal (510nm/395nm)) was found to be 1.1. Still for that read-out and setting: the result for B7 reads 1; that for B8, 0.98.
